Publication PMC10687260, “1,3-Diphenylureido hydroxamate as a promising scaffold for generation of potent antimalarial histone deacetylase inhibitors” (Scientific Reports, 2023)

Amino acid sequences for entries named in this document (tags omitted).
UniProt Q13547, whole entry: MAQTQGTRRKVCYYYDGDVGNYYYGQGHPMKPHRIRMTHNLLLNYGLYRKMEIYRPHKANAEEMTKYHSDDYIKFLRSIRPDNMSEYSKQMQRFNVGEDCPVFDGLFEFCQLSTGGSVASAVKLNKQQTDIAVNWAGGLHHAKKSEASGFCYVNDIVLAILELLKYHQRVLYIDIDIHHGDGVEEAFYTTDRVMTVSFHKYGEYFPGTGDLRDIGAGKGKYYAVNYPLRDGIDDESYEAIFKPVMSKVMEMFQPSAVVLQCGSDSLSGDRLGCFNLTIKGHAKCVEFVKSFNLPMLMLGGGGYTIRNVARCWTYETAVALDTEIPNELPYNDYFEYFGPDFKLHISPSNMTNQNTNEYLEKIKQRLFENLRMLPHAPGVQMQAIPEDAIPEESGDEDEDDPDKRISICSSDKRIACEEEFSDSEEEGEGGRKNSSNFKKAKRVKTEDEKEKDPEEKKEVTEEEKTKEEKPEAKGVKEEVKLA

Target: T1, human HDAC1 (Homo sapiens, UniProt Q13547)
T1 construct: purchased ENZO Life Sciences AG (Lausen, CH)
Assay: In vitro HDAC enzymatic assay, HDAC1
Assay type: biochemical
Conditions: mean ± SD

IC50: 2.72 ± 0.281 µM
SMILES: O=C(/C=C/c1ccc(NC(=O)Nc2ccc(Cl)cc2)cc1)NO [Compound 6b, (E)-3-(4-(3-(4-chlorophenyl)ureido)phenyl)-N-hydroxyacrylamide]
